{"source": "patent US20170340689A1", "about": "“TITRATED EXTRACTS OF CYNARA SCOLYMUS FOR USE IN THE TREATMENT OF MESOTHELIOMA” (ABOCA S.P.A SOCIETÀ AGRICOLA, priority 2014, published 2017)", "tested_on": "MSTO211H and NCI-H2052", "assay": "ATPlite cell vitality assay in co-treatment with pemetrexed, MPM lines", "assay_type": "cell-based, human", "settings": "72 h, extract at non-cytotoxic dose 6 μg/ml", "source_text": "4.1 Association of Extract of Cynara Spp. and Pemetrexed with ATPlite™ Assay"}
{"molecule": "Nc1nc2[nH]cc(CCc3ccc(C(=O)N[C@@H](CCC(=O)O)C(=O)O)cc3)c2c(=O)[nH]1", "note": "[PMTX, pemetrexed]", "values": [{"measurement": "cell vitality of MPM cell lines, pemetrexed alone or with extract", "value": "cytotoxic for the MPM cells"}]}
